Experimental melting point values from OPERA 2.9

Source: data files of OPERA 2.9 (Mansouri et al.), github.com/kmansouri/OPERA.

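The OPERA project collected these measurements from public sources as training and test data for property models. The files give a single number for a compound and property, which may rest on several reports. Conditions of the individual experiments are not part of the data. The measured form (salt, isomer or mixture) is not always the one drawn. Some upstream entries may be estimates or bounds without being marked so.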

Melting points are in °C. Cells with "–" have no entry in this list. "via" names the databases from which the curators took the value.

| SMILES | name | mp (°C) | via |
|---|---|---|---|
| CN(C)S(=O)(=O)c1ccc(Cl)c([N+](=O)[O-])c1 | Benzenesulfonamide, 4-chloro-N,N-dimethyl-3-nitro- | 105 | OCHEM |
| S=c1ncn(-c2ccccc2)[nH]1 | 1,2-Dihydro-1-phenyl-3H-1,2,4-triazole-3-thione | 174 | OCHEM |
| CC(=O)CN1C(=O)c2ccccc2S1(=O)=O | – | 145 | OCHEM |
| CCCCCCCCSc1nc(Nc2cc(C(C)(C)C)c(O)c(C(C)(C)C)c2)nc(SCCCCCCCC)n1 | – | 95.39 | eChemPortal |
| Clc1cc(Cl)c(Oc2ccc(Cl)c(Cl)c2Cl)cc1Cl | 2,2',3,4,4',5'-Hexachlorodiphenylether | 69 | QSARDB |
| CN1CCN(CCC=C2c3ccccc3Sc3ccc(S(=O)(=O)N(C)C)cc32)CC1 | Thiothixene | 116 | PubChem |
| Cc1cc(C2C(=O)Oc3c2cc(C(C)(C)C)cc3C(C)(C)C)cc(C)c1O (stereo not given) | – | 237.5 | eChemPortal |
| C=CCOC(=O)C(C)(C)OC(=O)c1cc([N+](=O)[O-])ccc1Cl | – | 47 | eChemPortal |
| Cn1c(-c2ccc(F)cc2)n[nH]c1=S | – | 113 | OCHEM |
| CC(C)C1OC(N)=NC1=O (stereo not given) | 2-amino-5-isopropyl-1,3-oxazol-4(5H)-one | 220 | OCHEM |
| NC(=O)NC(=O)[O-].[K+] | Potassium carbamoylcarbamate | 298.3 | eChemPortal |
| Cn1c(N)c(C(=O)CC#N)c(=O)n(C)c1=O | – | 261 | OCHEM |
| O=c1cc(CCl)c2cc(O)c(O)cc2o1 | 4-(Chloromethyl)-6,7-dihydroxy-2-benzopyrone | 179 | OCHEM |
| NNC(=O)c1ccc(Cl)c(S(N)(=O)=O)c1 | 2-Chloro-5-(hydrazinecarbonyl)benzene-1-sulfonamide | 213 | OCHEM |
| Cc1ccc(-c2nc(N)sc2C)cc1 | 5-methyl-4-(4-methylphenyl)-1,3-thiazol-2-amine | 174 | OCHEM |
| CC(C)n1c(=S)[nH]c2ccccc21 | 1-isopropyl-1h-benzimidazole-2-thiol | 139 | OCHEM |
| O=C(O)C1(c2ccc(Br)cc2)CCCC1 | 1-(4-Bromophenyl)cyclopentanecarboxylic acid | 177 | OCHEM |
| COc1cc(Cl)c(Cl)cc1O | 4,5-Dichloroguaiacol | 72 | QSARDB |
| CCOc1ccc(-c2nc(-c3ccccc3)nc(-c3ccccc3O)n2)cc1 | 2-[4-(4-Ethoxyphenyl)-6-phenyl-1,3,5-triazin-2-yl]phenol | 172 | eChemPortal |
| Oc1ccc2oc3c(c2c1)CCCC3 | 2-Dibenzofuranol, 6,7,8,9-tetrahydro- | 104 | OCHEM |
| CCCCCCn1ncc(N)c1N.CCCCCCn1ncc(N)c1N.O=S(=O)(O)O | – | 84.39 | eChemPortal |
| CC(=O)c1ccc(-c2ccc(C=O)o2)cc1 | 5-(4-Acetylphenyl)furan-2-carbaldehyde | 134 | OCHEM |
| CC(C)N(C(=O)CO)c1ccc(F)cc1 | Acetamide, N-(4-fluorophenyl)-2-hydroxy-N-(1-methylethyl)- | 55 | eChemPortal |
| O=Cc1cn(-c2ccccc2)nc1-c1cccs1 | 1-Phenyl-3-(thiophen-2-yl)-1H-pyrazole-4-carbaldehyde | 91 | OCHEM |
| O=C(O)c1cc(S(=O)(=O)N2CCOCC2)ccc1O | 2-Hydroxy-5-(morpholine-4-sulfonyl)-benzoic acid | 235 | OCHEM |
| CCOC(=O)CC1(C)OCCO1 | 1,3-Dioxolane-2-acetic acid, 2-methyl-, ethyl ester | -78.8 | eChemPortal |
| O=C(O)CN1C(=O)COc2ccccc21 | (3-oxo-2,3-dihydro-4H-1,4-benzoxazin-4-yl)acetic acid | 230 | OCHEM |
| Cc1ccccc1-n1c(C)cc(C=O)c1C | 2,5-Dimethyl-1-(2-methylphenyl)-1H-pyrrole-3-carbaldehyde | 72 | OCHEM |
| CCCCCCCCCCCCCCCCCC(=O)NCCCN(C)C | N-[3-(Dimethylamino)propyl]octadecanamide | 67.4 | eChemPortal |
| CNC(=S)N(C)C | 1,1,3-Trimethyl-2-thiourea | 87.5 | PubChem |
| Nc1c2c(nn1-c1ccccc1)CCC2 | 2-Phenyl-2,4,5,6-tetrahydrocyclopenta[c]pyrazol-3-amine | 181 | OCHEM |
| O=C(O)c1cn[nH]c1-c1ccc(Cl)cc1 | 3-(4-chlorophenyl)-1H-pyrazole-4-carboxylic acid | 277 | OCHEM |
| O=C1CCCN1c1ccc(O)cc1 | 1-(4-hydroxyphenyl)pyrrolidin-2-one | 160 | OCHEM |
| CC(=O)O[C@H](CC(=O)[O-])C[N+](C)(C)C | Acetyl-L-carnitine | 145 | PubChem |
| Cc1ncc(C[n+]2csc(CCOP(=O)(O)O)c2C)c(N)n1.[Cl-] | Monophosphothiamine | 135 | eChemPortal |
| Cc1nc2c(O)cccn2c(=O)c1CCCl.Cl | – | 224.9 | eChemPortal |
| CN(C)c1nc(N)nc(CC#N)n1 | [4-amino-6-(dimethylamino)-1,3,5-triazin-2-yl]acetonitrile | 140 | OCHEM |
| C=CC(C)(C#CC1(O)C(C)=C2OC(C)OC2CC1(C)C)OC(C)OCC (stereo not given) | – | -17 | eChemPortal |
| O=c1[nH]nc(-c2cccs2)o1 | 5-(Thiophen-2-yl)-1,3,4-oxadiazol-2(3H)-one | 117 | OCHEM |
| CCCCC(CC)CN(CC(CC)CCCC)CC(CC)CCCC (stereo not given) | 1-Hexanamine, 2-ethyl-N,N-bis(2-ethylhexyl)- | -94 | eChemPortal |
| CCCCC(CC)COC(=O)c1ccccc1 (stereo not given) | 2-Ethylhexyl benzoate | -98 | eChemPortal |
| C=CCNC(=O)CC#N | 2-cyano-N-(prop-2-en-1-yl)acetamide | 66 | OCHEM |
| O=C(O)Cc1cn2ccsc2n1 | Imidazo[2,1-b]thiazol-6-yl-acetic acid | 182 | OCHEM |
| COc1ccc(CNC(=O)C2CCNCC2)cc1 | N-(4-methoxybenzyl)piperidine-4-carboxamide | 119 | OCHEM |
| NC1CCN(C(=O)C2CC2)CC1 | (4-Aminopiperidin-1-yl)(cyclopropyl)methanone | 54 | OCHEM |
| CN(c1ccc2c(O)c(/N=N/c3ccccc3S(=O)(=O)[O-])c(S(=O)(=O)[O-])cc2c1)c1nc(Cl)nc(Nc2cccc(S(=O)(=O)[O-])c2)n1.[Na+].[Na+].[Na+] | – | 240 | eChemPortal |
| O=C(Nc1ccccc1)NS(=O)(=O)Nc1ccccc1 | – | 165 | eChemPortal |
| Clc1ncnc2c1oc1ccccc12 | 4-chlorobenzofuro[3,2-d]pyrimidine | 145 | OCHEM |
| Cc1cc(C)c(S(=O)(=O)NC2CCCCC2)c(C)c1Nc1ccc(Nc2c(C)cc(C)c(S(=O)(=O)NC3CCCCC3)c2C)c2c1C(=O)c1ccccc1C2=O | – | 296 | eChemPortal |
| Cc1cc(C)c(C(=O)O)c(=O)[nH]1 | 2-hydroxy-4,6-dimethylnicotinic acid | 235 | OCHEM |

7 of these entries, quoted again:

| SMILES | name | mp (°C) | via |
|---|---|---|---|
| CCCCCCCCCCCCCCCCCC(=O)NCCCN(C)C | N-[3-(Dimethylamino)propyl]octadecanamide | 67.4 | eChemPortal |
| CN1CCN(CCC=C2c3ccccc3Sc3ccc(S(=O)(=O)N(C)C)cc32)CC1 | Thiothixene | 116 | PubChem |
| NC(=O)NC(=O)[O-].[K+] | Potassium carbamoylcarbamate | 298.3 | eChemPortal |
| Cc1cc(C2C(=O)Oc3c2cc(C(C)(C)C)cc3C(C)(C)C)cc(C)c1O (stereo not given) | – | 237.5 | eChemPortal |
| CC(=O)O[C@H](CC(=O)[O-])C[N+](C)(C)C | Acetyl-L-carnitine | 145 | PubChem |
| O=C(O)c1cc(S(=O)(=O)N2CCOCC2)ccc1O | 2-Hydroxy-5-(morpholine-4-sulfonyl)-benzoic acid | 235 | OCHEM |
| CCCCCCn1ncc(N)c1N.CCCCCCn1ncc(N)c1N.O=S(=O)(O)O | – | 84.39 | eChemPortal |